# System: A549-dual_ACE2_TMPRSS2 cells
# Assay: Toxicity testing in A549-dual_ACE2_TMPRSS2 cells without virus (MTS)
# Conditions: read-out: A549-dual_ACE2_TMPRSS2 (CC50), Table C, class symbols
# Procedure: The A549-dual_ACE2_TMPRSS2 cells (InvivoGen Cat #a-49-cov2r) were propagated in the growth medium which was prepared by supplementing DMEM (gibco cat no 41965-039) with 10% v/v heat-inactivated FCS and 10 μg/mL blasticidin (InvivoGen ant-b1-05), 100 μg/mL hygromycin (InvivoGen ant-hg-1), 0.5 μg/mL puromycin (InvivoGen ant-pr-1) and 100 μg/mL zeocin (InvivoGen ant-zn-05) in a humidified 5% CO2 incubator at 37° C. The assay medium was prepared by supplementing DMEM (gibco cat no 41965-039) with 2% v/v heat-inactivated FCS.
# For toxicity testing, the same experimental setup was used except that assay medium without virus was added to the cells and that an additional control of well without cells was added to the plate.
# Table C indicates related EC50 and CC50 values for the tested compounds ‘A’ indicates an EC50 <100 nM, ‘B’ indicates an EC50 of ≥100 nM and <1000 nM, ‘C’ indicates an EC50 ≥1000 nM and <10000 nM. For CC50, the values are reported in micromolar (μM). ‘A’ indicates a CC50 ≥1000 nM. ‘B’ indicates a CC50 ≥100 nM and <1000 nM.
structure (smiles),measurement,value
CN(C(=O)[C@H](CC1CC1)NS(=O)(=O)C1CC1)[C@@H](CC1CC1)C(=O)N1C[C@@]2(C[C@H]1C#N)Oc1cc(F)cc(F)c1NC2=O,CC50,> 1000 nM

# — patent US20240199647A1, “ANTI-VIRAL COMPOUNDS” (Aligos Therapeutics, Inc., priority 2022, published 2024)
